Source: ChEMBL document CHEMBL4376854, “Investigation of the Adrenergic and Opioid Binding Affinities, Metabolic Stability, Plasma Protein Binding Properties, and Functional Effects of Selected Indole-Based Kratom Alkaloids” (J Med Chem, 2020)

Chains of the proteins cited; added tags and fusions are not shown. Lines headed by an entry give the natural chain unless they say otherwise; changes in a name come on top.
UniProt P41146: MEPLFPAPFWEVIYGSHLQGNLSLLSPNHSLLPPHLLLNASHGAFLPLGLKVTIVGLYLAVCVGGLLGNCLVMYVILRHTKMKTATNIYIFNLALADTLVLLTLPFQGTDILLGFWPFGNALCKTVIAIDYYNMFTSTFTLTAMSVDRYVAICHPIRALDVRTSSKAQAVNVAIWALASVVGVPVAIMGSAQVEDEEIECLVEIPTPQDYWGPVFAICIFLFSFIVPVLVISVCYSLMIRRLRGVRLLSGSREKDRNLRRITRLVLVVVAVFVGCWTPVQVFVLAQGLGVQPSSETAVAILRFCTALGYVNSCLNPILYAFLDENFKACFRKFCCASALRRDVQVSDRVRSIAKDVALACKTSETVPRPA

Assays:
Rattus norvegicus = assay: Antinociceptive activity in Sprague-Dawley rat dosed intravenously using cumulative dosing every 5 mins until rat maxed-out on hot plate co-treated with 0.1 mg/kg naltrexone by hot plate test; assay type: functional, organism-based
[1] = target: Nociceptin receptor (Homo sapiens) (UniProt P41146); conditions: 100 nM
[2] = target: Nociceptin receptor (Homo sapiens) (UniProt P41146); conditions: 10000 nM

SMILES	Activity (Rattus norvegicus)	inhibition [1]	inhibition [2]
CN(C(=O)Cc1ccccc1)[C@H]1CC[C@@]2(CCCO2)C[C@@H]1N1CCCC1	inactive		
CC[C@@H]1CN2CC[C@@]3(O)C(=Nc4cccc(OC)c43)[C@@H]2C[C@@H]1/C(=C\OC)C(=O)OC		-1.6%	3.4%

Calls of active or inactive are those of the source. The calls are words filed in the database; no cut-off is given here.
